The target in assay [1] is SARS-CoV-2 nsp14 (Severe acute respiratory syndrome coronavirus 2, UniProt P0DTD1). The assay is classed as biochemical.
The target of assay [2] is SARS-CoV-2 nsp16/nsp10 (Severe acute respiratory syndrome coronavirus 2, UniProt P0DTD1). The assay is classed as biochemical.

`CNCCCN(CC[C@H](N)C(=O)O)C[C@H]1O[C@@H](n2cnc3c(N)ncnc32)[C@H](O)[C@@H]1O` [ZINC000584905214]: the “Percent inhibition at 100 μM, nsp14” value in assay [1] amounted to 22 ±5%. In addition, the “Percent inhibition at 100 μM, nsp16” value in assay [2] amounted to 1 ±5%.

These data come from article PMC8705538, “Discovery of SARS-CoV-2 Nsp14 and Nsp16 Methyltransferase Inhibitors by High-Throughput Virtual Screening” (Pharmaceuticals, 2021).
